Molecular target: Recombinant human A97S‐TTR (transthyretin, A97S variant) (human) (UniProt P02766)
Assay: SDS-PAGE; 15% SDS–PAGE of the purified protein after Ni affinity and gel filtration

stoichiometry N: 4
Substance: Recombinant human A97S‐TTR (transthyretin, A97S variant) (from UniProt P02766 21-144) (natural protein)
